Patent US20240368212A1, “SELECTIVE ISONITRILE INHIBITORS OF CYTOCHROME P450 SUBTYPES” (priority 2021, published 2024)
“And” between values parts separate entries of the source, which are not always exact repeats. Equal entries are not always repeated.

By UniProt entry, the sequences of proteins in these tests, tags left out.
UniProt P08684, whole entry: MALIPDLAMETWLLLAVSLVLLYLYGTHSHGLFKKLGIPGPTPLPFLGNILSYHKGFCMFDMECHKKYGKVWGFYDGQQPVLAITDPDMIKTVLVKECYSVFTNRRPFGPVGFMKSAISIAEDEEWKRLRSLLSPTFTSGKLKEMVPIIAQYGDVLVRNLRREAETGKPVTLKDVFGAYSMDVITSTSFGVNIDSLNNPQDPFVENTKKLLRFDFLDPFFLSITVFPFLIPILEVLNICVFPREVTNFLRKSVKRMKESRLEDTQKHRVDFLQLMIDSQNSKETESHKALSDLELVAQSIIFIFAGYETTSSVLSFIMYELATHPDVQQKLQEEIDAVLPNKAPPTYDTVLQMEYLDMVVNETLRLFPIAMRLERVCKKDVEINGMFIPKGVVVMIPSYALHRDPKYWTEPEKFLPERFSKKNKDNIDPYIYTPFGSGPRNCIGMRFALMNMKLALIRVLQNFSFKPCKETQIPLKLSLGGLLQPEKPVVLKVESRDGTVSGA
UniProt P10635, whole entry: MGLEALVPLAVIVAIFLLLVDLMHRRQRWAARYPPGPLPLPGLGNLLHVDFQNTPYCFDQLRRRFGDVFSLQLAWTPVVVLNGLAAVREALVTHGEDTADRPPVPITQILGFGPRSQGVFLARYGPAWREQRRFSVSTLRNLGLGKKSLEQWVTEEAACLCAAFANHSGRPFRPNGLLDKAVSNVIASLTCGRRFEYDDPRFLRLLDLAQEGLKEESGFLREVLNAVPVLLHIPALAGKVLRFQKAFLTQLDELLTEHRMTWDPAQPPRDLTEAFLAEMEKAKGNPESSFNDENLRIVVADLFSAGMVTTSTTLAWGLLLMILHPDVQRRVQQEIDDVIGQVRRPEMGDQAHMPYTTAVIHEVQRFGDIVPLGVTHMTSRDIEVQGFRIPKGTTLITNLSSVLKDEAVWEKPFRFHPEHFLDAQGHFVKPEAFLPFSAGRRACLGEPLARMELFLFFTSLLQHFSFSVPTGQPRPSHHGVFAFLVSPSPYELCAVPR

Legend:
CYP3A4 [1] = target: T1, CYP3A4 (Homo sapiens, UniProt P08684)
Procedure: (§1) Ligand binding assays. (Adapted from DeVore, N M, et al. (2009). Drug Metabolism and Disposition, 37(6), 1319-1327.) Ligand interaction with the heme iron was evaluated by titrating ligands into a cuvette containing purified CYP17A1, CYP2D6, or CYP3A4 and measured using a UV-visible scanning spectrophotometer. […] Ligands dissolved in DMSO were added to the sample cuvette and an equal volume of DMSO to the reference cuvette. Difference spectra were recorded from 300-500 nm after equilibration of enzyme and ligand. Binding to the enzyme was measured as the difference in maximal and minimal absorbance: A387-A419 for pregnanolone and 3-formyl pregnanolone, and A435-A393 for 3-formyl pregnanolone-20-isonitrile with CYP17A1; A434-A414 for 3-formyl pregnanolone-20-isonitrile with CYP3A4 and CYP2D6. […] All data fitting was accomplished using GraphPad Prism 9.

CYP2D6 = CYP2D6 (Homo sapiens, UniProt P10635); settings: read-out: Kd (dissociation constant); CYP2D6 1.0 μM
Procedure: as §1

CYP3A4 [2] = target: T1, CYP3A4; settings: reduced with sodium dithionite, re-oxidized in air

| Substance | Kd for CYP3A4, fold higher than 20-(R)-16 (CYP3A4 [1]; parent steroid vs isonitrile) [fold] | Kd (CYP3A4 [1]; read-out: Kd (dissociation constant), CYP3A4 1.0 μM) | dissociation constant for CYP3A4, fold higher than for CYP17A1 (CYP3A4 [1]; selectivity CYP3A4 vs CYP17A1) | Kd (CYP2D6) | stability of the reduced isonitrile complex (CYP3A4 [2]) |
| --- | --- | --- | --- | --- | --- |
| 3b-formyl-5a-pregnanalone [reference compound] | 10 | – | – | – | – |
| 3β-formyl-(R)-(20-isonitrilo)pregnane [20-(R)-16] | – | 300 nM and ~300 nM | at least 3 fold | 250 nM and ~250 nM | clean two-state conversion between the reduced and oxidized complexes with the isonitrile still bound |
